Several values for one entry are separate records, joined by “and”; a condition that tells them apart may be missing. Equal values may be shown once.
Assays:
[1] = molecular target: human PCSK9 (proprotein convertase subtilisin/kexin type 9), wild type (human) (UniProt Q8NBP7); test: competition ELISA: 100 ng/mL biotinylated WT PCSK9 with 11F1, binding to captured LDLR (n=3)
[2] = molecular target: human PCSK9 (proprotein convertase subtilisin/kexin type 9), wild type (human) (UniProt Q8NBP7); test: cell-based or functional assay

IC50 [1]: 4.4 nM to 8.1 nM (2×) and 5.9 nM
EC50, block of WT PCSK9-mediated decrease in LDL uptake (HepG2 cells, BODIPY-LDL, 25 µg/mL WT PCSK9) [2]: 124 nM
B1: 11F1, anti-PCSK9 antibody (antibody, V domains shown)
VH: EVQLVESGGGLVQPGGSLRLSCAASGFTFSNYWMSWVRQAPGKGLEWVASIKQDGSEKYYVDSVKGRFAISRDNAKNSLFLQMNSLRAEDTAVYYCARDLVLMVYDIDYYYYGMDVWGQGTTVTVSS
VL: DIVMTQSPLSLPVTPGEPASISCRSSQSLLHSNGYNYLDWYLQKPGQSPQLLIYLGSNRASGVPDRFSGSGSGTHLTLKISRVEAEDVGVYYCMQTLQTPLTFGGGTKVEIK
